# Screening results: PubChem, Broad Institute
# CAL PDZ FP-1: CAL PDZ (human) peptide binding inhibition. Q9HD26. actives 0.92% (n = 300,000). purified CAL PDZ, TMR-peptide fluorescence polarization, 1 h. inhibition, % at 24.9 µM;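 active = mean inhibition of at least 30% with at least half of replicates also reaching 30%; inconclusive = no clear call, values can overlap the other calls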;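 note: 0% = DMSO neutral control and 100% = excess unlabeled competitor peptide PRC23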
# Yeast UUG start: alters start codon recognition fidelity in yeast. S. cerevisiae UUG-firefly luciferase reporter, luminescence/redox ratio. activity score, % at 18.7 µM. 0.13% of 350,000 active. AID 602363;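 active = replicate mean at a twofold rise or more, about +100% in these data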;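 also: firefly luciferase made from a UUG start codon reports start codon fidelity; reporter light over untreated wells divided by growth signal over untreated wells; some hits fall short of that in this replicate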
# CAL PDZ FP-2: blocks peptide binding to human CAL PDZ domain; Q9HD26; purified CAL PDZ, TMR-peptide fluorescence polarization, 1 h; inhibition, % at 20 µM; actives 0.02% (n = 330,000); AID 504414;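 active = highest replicate inhibition of at least 40%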;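 note: plate controls were DMSO neutral control wells for no effect and unlabeled competitor peptide control wells for full effect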
#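 material = purified tagged CAL PDZ domain construct (CerCALP) | compound dosing = 20 µM, one dose | times = 1 h at RT | measured by = fluorescence polarization from S- and P-plane intensities, G-factor corrected | read-out = inhibition from polarization loss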
# Vif inh: inhibitors of HIV Vif; inhibition, % at 7.49 µM; AID 602346; HEK293T cells, Vif self-association by quenched fluorescence, imaging, 24 h; actives 0.35% (n = 340,000); in the data active = inhibition above about 50%, passing the limit was not always enough; inconclusive = no clear call, values can overlap the other calls; inactive = below about 31%
# ARNT-TACC3 inh: ARNT/TACC3 interaction disruption | inhibition, % at 9.99 µM | AID 623870 | actives 0.66% (n = 390,000) | AlphaScreen His-ARNT PAS-B/GST-TACC3 binding, luminescence; TACC3 fragment carries E629A point mutation | Q9Y6A5;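 active = mean inhibition of replicates at least 50% and at least half of replicates each reaching 50%; inconclusive = half or more replicates reach 50% but mean below 50%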;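 note: 0% = complete ARNT plus TACC3 wells and 100% = ARNT alone without TACC3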
# PglD DTNB: blocks C. jejuni PglD acetyltransferase activity; inhibition, % at 12.5 µM; actives 0.098% (n = 360,000); purified PglD enzyme, DTNB colorimetric CoA detection; in the data active = inhibition above about 16%, passing the limit was not always enough; inconclusive = no clear call, values can overlap the other calls
# The depositor's hits bear a star; ? = inconclusive; nt = not tested or not shown. In the library only some 1.6% were active in any assay of this set; here they are far more common.
# Keys – A = CAL PDZ FP-1; B = Yeast UUG start; C = CAL PDZ FP-2; D = Vif inh; E = ARNT-TACC3 inh; F = PglD DTNB
smiles: COC(=O)CCC(=O)OC1(C)C(=O)C=C2C=C(C3CC3)N(CCCCO)C=C2C1=O (stereo not drawn)
  A = 2 | B = 0 | C = 1 | D = -1 | E = 32* | F = -2

smiles: COC(=O)CCC(=O)OC1(C)C(=O)C=C2C=C(C3CC3)N(CCCOC(C)C)C=C2C1=O (stereo not drawn)
  A = 0 | B = 6 | C = -1 | D = -1 | E = 75* | F = -2

smiles: COc1ccc(S(=O)(=O)N(C)C[C@@H]2Oc3c(NC(=O)c4ccncc4)cccc3C(=O)N([C@H](C)CO)C[C@@H]2C)cc1
  A = nt | B = -8 | C = nt | D = nt | E = 2 | F = 0

smiles: C[C@H](CO)N1C[C@H](C)[C@@H](CN(C)Cc2ccncc2)OCCCC[C@H](C)Oc2ccc(NC(=O)Nc3ccc(F)cc3)cc2C1=O
  A = nt | B = -2 | C = nt | D = nt | E = -5 | F = -1

smiles: Cc1nc2ccccc2n1CC(=O)N/N=C\c1ccccn1
  A = -5 | B = -28 | C = 0 | D = 3 | E = 40* | F = -2

smiles: O=C(N/N=C1\C/C(=N\NC(=O)c2ccncc2)c2ccccc21)c1ccncc1
  A = nt | B = -21 | C = 1 | D = 34 | E = 67* | F = -2

smiles: O=C(N/N=C(\Cc1ncc[nH]1)c1ccccc1)c1ccncc1
  A = -3 | B = -16 | C = -2 | D = 14 | E = 64* | F = 1

smiles: O=C(N/N=C\c1ccccn1)c1ccccc1O
  A = -3 | B = nt | C = -3 | D = ? | E = 59* | F = nt

smiles: C[C@H](CO)N1C[C@H](C)[C@H](CN(C)C(=O)c2ccncc2)Oc2ncc(C3=CCCCC3)cc2C1=O
  A = nt | B = -11 | C = nt | D = nt | E = -5 | F = 6

smiles: C[C@@H]1CN([C@H](C)CO)C(=O)c2cc(C#Cc3cccc(F)c3)cnc2O[C@H]1CN(C)C(=O)C1CCOCC1
  A = nt | B = -13 | C = nt | D = nt | E = nt | F = nt

smiles: COc1cc(C(=O)N/N=C/c2ccccn2)cc(OC)c1OC
  A = -1 | B = nt | C = -1 | D = -2 | E = 48* | F = nt

smiles: Cn1ncc(Cl)c1C(=O)N/N=C/c1ccccn1
  A = -4 | B = -27 | C = -2 | D = -5 | E = 66* | F = -1

smiles: COc1cc(C(=O)Nc2ccc3c(c2)ncn3C)cc(OC)c1OC
  A = -4 | B = -18 | C = -1 | D = 76* | E = -6 | F = 3

smiles: O=C(NCc1ccncc1)C(=O)N/N=C/c1ccccn1
  A = 56* | B = nt | C = -2 | D = 2 | E = 9 | F = nt

smiles: C[C@@H]1CN([C@@H](C)CO)C(=O)c2cc(C3=CCCC3)cnc2O[C@H]1CN(C)Cc1ccccc1C(=O)O
  A = nt | B = 8 | C = nt | D = nt | E = -4 | F = -2

smiles: C[C@@H]1CN([C@H](C)CO)C(=O)c2cc(NC(=O)CCC(F)(F)F)ccc2O[C@@H](C)CCCCO[C@H]1CN(C)Cc1ccccc1
  A = nt | B = 18 | C = nt | D = nt | E = 3 | F = 0

smiles: O=C(NCC[C@@H]1CC[C@@H](NC(=O)C2CC2)[C@@H](CO)O1)c1cnccn1
  A = nt | B = -2 | C = nt | D = nt | E = 1 | F = -3

smiles: COc1ccc(NC(=O)N(C)C[C@H]2Oc3c(NC(=O)Nc4ccc(F)cc4)cccc3C(=O)N([C@H](C)CO)C[C@@H]2C)cc1
  A = nt | B = 17 | C = nt | D = nt | E = 1 | F = 5

smiles: O=C(N/N=C/c1c[nH]c2ccccc12)c1sc2ccccc2c1Cl
  A = -2 | B = -14 | C = 1 | D = -1 | E = 42 | F = 5

smiles: C(=N\NC(=Nc1ccccc1)c1ccccn1)/c1ccccn1
  A = -3 | B = nt | C = -1 | D = -11 | E = 87* | F = nt

smiles: O=C(N/N=C/c1ccccn1)c1sc2ccccc2c1Cl
  A = -3 | B = -52 | C = -4 | D = 2 | E = 55* | F = 5

smiles: O=C(N/N=C/c1ccccn1)c1ccco1
  A = 1 | B = -16 | C = 0 | D = -1 | E = 45* | F = 0

smiles: O=C(N/N=C/c1ccccn1)c1ccncc1
  A = nt | B = -16 | C = 0 | D = nt | E = 69* | F = -4

smiles: C[C@@H]1CCCCO[C@H](CN(C)C(=O)c2ccccc2)[C@H](C)CN([C@@H](C)CO)C(=O)c2cc(NC(=O)NC3CCCCC3)ccc2O1
  A = nt | B = 19 | C = nt | D = nt | E = 3 | F = 2

smiles: Cc1ccsc1/C=N/NC(=O)c1ccncc1
  A = 2 | B = nt | C = 0 | D = 8 | E = 23 | F = nt

smiles: O=C(N/N=C\c1ccncc1)c1ccccc1O
  A = -7 | B = nt | C = -2 | D = -1 | E = 5 | F = nt

smiles: COCc1c(C(=O)N/N=C\c2ccccn2)nnn1-c1nonc1N
  A = 3 | B = -9 | C = 0 | D = 32 | E = 74* | F = -5

smiles: O=C(N/N=C/C=C/c1ccccc1)c1ccccn1
  A = -1 | B = nt | C = -1 | D = -4 | E = 27 | F = nt

smiles: COc1cc(C(=O)N/N=C/c2sccc2C)cc(OC)c1OC
  A = 3 | B = nt | C = -1 | D = 75* | E = -16 | F = nt

smiles: O=C(N/N=C/C=C\c1ccco1)c1ccccn1
  A = -3 | B = nt | C = 0 | D = 4 | E = 68* | F = nt

# Structural class, the entries above with a furan ring, fused or not.
# Keys – A = CAL PDZ FP-1; B = Yeast UUG start; C = CAL PDZ FP-2; D = Vif inh; E = ARNT-TACC3 inh; F = PglD DTNB
smiles: O=C(N/N=C/c1ccccn1)c1ccco1
  A = 1 | B = -16 | C = 0 | D = -1 | E = 45* | F = 0

smiles: O=C(N/N=C/C=C\c1ccco1)c1ccccn1
  A = -3 | B = nt | C = 0 | D = 4 | E = 68* | F = nt

# Continuation.
# Keys – A = CAL PDZ FP-1; B = Yeast UUG start; C = CAL PDZ FP-2; D = Vif inh; E = ARNT-TACC3 inh; F = PglD DTNB
smiles: O=C(N/N=C/c1cccc2cccnc12)c1ccccc1O
  A = -4 | B = -43 | C = -2 | D = -4 | E = 72* | F = -6

smiles: O=C(Cc1ccc(S(=O)(=O)N2CCCCC2)s1)Nc1ccc(F)cc1F
  A = 6 | B = -7 | C = 0 | D = -1 | E = -1 | F = -2

smiles: O=C(COC(=O)Cc1ccc(S(=O)(=O)N2CCOCC2)s1)Nc1ccc(F)cc1F
  A = 45* | B = -14 | C = 0 | D = -4 | E = -7 | F = 2

smiles: CC1(C)CC2CC(C)(CN2Cc2cccc([N+](=O)[O-])c2)C1 (stereo not drawn)
  A = -1 | B = 10 | C = 0 | D = 57* | E = 4 | F = -3

smiles: CC1(C)CC2CC(C)(CN2C(=O)COC(=O)c2cccc([N+](=O)[O-])c2)C1 (stereo not drawn)
  A = 0 | B = nt | C = 0 | D = -1 | E = 3 | F = nt

smiles: C[C@@H]1CCCCO[C@H](CN(C)C(=O)Cc2ccccc2)[C@H](C)CN([C@@H](C)CO)C(=O)c2cc(NC(=O)c3ccccc3)ccc2O1
  A = nt | B = -2 | C = nt | D = nt | E = -8 | F = 1

smiles: CCCN1C(=O)/C(=C\C=C2\N(CC)c3ccccc3C2(C)C)SC1=S
  A = 4 | B = -17 | C = -20 | D = 167* | E = -6 | F = 1

smiles: Nc1nn2c(C(F)(F)F)cc(=O)[nH]c2c1N=Nc1cccc(F)c1
  A = nt | B = nt | C = 1 | D = 4 | E = -2 | F = nt

smiles: Cc1cc(=O)[nH]c2c(N=Nc3ccc(O)cc3)c(N)nn12
  A = 0 | B = -2 | C = -1 | D = -7 | E = 47* | F = -2

smiles: COc1ccc(S(=O)(=O)N(C)C[C@H]2Oc3ccc(NC(=O)NC4CCCCC4)cc3CC(=O)N([C@H](C)CO)C[C@@H]2C)cc1
  A = nt | B = -10 | C = nt | D = nt | E = 7 | F = -4

smiles: COc1ccccc1N(CC(=O)N1CCN(c2ccccc2)CC1)S(=O)(=O)c1ccc(C)cc1
  A = 66* | B = 10 | C = -1 | D = nt | E = -9 | F = -2

smiles: COc1ccc(N(CC(=O)N2CCN(c3ccccc3)CC2)S(=O)(=O)c2ccc(C)cc2)cc1
  A = nt | B = 1 | C = 0 | D = 7 | E = 2 | F = -6

smiles: CCCn1c(SCC(=O)Nc2cc(Cl)ccc2Cl)n[nH]c1=O
  A = 52* | B = 6 | C = -1 | D = -1 | E = -4 | F = 4

smiles: COc1cccc(-c2ccc3n(c2=O)C[C@H]2[C@H](CO)[C@@H](C(=O)NC4CCCC4)N[C@@H]32)c1
  A = nt | B = nt | C = nt | D = nt | E = 2 | F = 0

smiles: Nc1c(N2CCCC2)cc(Cl)c2nonc12
  A = -1 | B = 11 | C = 2 | D = 1 | E = 37* | F = 4

smiles: COc1cc(OC)c(OC)cc1/C=N/NC(=O)CC1C(=O)NN=C1C (stereo not drawn)
  A = 36* | B = -4 | C = -4 | D = 10 | E = -3 | F = -2

smiles: CC1(C)C2CC[C@]3(C)C(CC=C4[C@@H]5C[C@@](C)(CO)[C@@H](O)C[C@]5(C(=O)O)CC[C@]43C)[C@@]2(C)CC[C@@H]1O (stereo partly drawn)
  A = nt | B = -12 | C = nt | D = 67* | E = nt | F = 1
